{
  "source": "patent US9918966B2",
  "about": "“Anti-cancer compositions and methods” (The Penn State Research Foundation, priority 2013, dated 2018)",
  "test_system": "normal human melanocytes or fibroblast cells",
  "data": [
    {"substance": "Selenocoxib-1", "values": [
      {"measurement": "toxicity on normal cells relative to melanoma cells", "result": "reduces normal cell growth with IC50s similar to that of melanoma cells"}
    ]}
  ]
}
